Measured values: PubChem BioAssay AID743445 (Broad Institute, 2014)
The list shows a part of the results, in another mix than the full data. Some tests of the compounds listed are not included; inactive here does not mean inactive elsewhere. The source made the active and inactive calls. Rule as the data show it: active = inhibition above about 50%; inactive = the rest.

Sequences of proteins named here, by UniProt entry; tags and fusion partners are left off.
UniProt O96028, whole entry: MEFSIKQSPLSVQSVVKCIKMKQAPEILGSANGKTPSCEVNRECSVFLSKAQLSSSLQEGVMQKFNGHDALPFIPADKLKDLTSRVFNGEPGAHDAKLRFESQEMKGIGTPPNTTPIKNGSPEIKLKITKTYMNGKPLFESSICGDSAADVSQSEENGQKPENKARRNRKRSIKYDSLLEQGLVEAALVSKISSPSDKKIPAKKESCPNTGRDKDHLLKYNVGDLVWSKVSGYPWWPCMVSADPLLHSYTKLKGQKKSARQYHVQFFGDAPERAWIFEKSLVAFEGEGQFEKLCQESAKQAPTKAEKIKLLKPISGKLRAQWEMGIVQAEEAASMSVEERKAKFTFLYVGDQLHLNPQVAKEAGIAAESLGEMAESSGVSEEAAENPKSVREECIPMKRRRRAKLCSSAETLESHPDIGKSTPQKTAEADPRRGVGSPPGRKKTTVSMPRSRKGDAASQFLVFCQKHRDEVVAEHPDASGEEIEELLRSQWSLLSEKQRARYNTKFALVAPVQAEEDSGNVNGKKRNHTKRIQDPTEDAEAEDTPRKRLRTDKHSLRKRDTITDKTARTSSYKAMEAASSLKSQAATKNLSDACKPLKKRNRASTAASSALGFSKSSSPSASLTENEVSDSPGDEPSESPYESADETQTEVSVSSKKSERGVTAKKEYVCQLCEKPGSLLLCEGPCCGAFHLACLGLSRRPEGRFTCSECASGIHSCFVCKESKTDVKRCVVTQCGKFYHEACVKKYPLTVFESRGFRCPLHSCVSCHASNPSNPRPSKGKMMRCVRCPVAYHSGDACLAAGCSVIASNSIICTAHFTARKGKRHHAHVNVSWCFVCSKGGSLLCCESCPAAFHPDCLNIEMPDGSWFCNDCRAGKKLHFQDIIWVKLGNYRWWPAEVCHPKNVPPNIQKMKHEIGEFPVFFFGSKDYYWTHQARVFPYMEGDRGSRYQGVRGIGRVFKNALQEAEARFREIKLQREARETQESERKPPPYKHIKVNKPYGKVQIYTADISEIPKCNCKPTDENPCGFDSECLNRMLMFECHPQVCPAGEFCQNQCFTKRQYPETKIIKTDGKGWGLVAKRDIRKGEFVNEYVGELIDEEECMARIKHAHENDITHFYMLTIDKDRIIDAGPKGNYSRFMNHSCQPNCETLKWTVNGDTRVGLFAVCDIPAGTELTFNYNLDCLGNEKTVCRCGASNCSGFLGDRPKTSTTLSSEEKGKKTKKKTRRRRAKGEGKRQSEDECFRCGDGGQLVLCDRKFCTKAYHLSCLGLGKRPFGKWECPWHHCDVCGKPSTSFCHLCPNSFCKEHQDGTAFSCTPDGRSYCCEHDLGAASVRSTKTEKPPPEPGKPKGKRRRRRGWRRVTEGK

Target: Histone-lysine N-methyltransferase NSD2 (Homo sapiens) (UniProt O96028)
Experiment: blockers of NSD2 lysine methylation activity – biochemical, AlphaScreen, single concentration, set 2, primary screen (AID 743445)
Details: NSD2 peptide methylation, 120 min, at 12.5 µM, active compounds read high

Structure (SMILES) | inhibition
O=C(NCC1(N2CCCCC2)CCCCC1)c1cc([N+](=O)[O-])ccc1Cl | inactive: 2.69%
CN1[C@@H]2CC[C@H]1CC(OC(=O)C(O)(c1ccccc1)c1ccccc1)C2 (stereo not given in full) | inactive: 0.006%
CC(C)N1C(=O)CC2(CCN(CCOC(=O)C(O)(c3ccccc3)c3ccccc3)CC2)C1=O | inactive: -1.37%
COc1cc(SC)ccc1C(=O)NCC1(N(C)C)CCCCC1 | inactive: 2.75%
CCN(CC)CC(C)C(C)OC(=O)C(O)(c1ccccc1)c1ccccc1 (stereo not given) | inactive: 0.765%
Cc1ccc(C(=O)NCC2(N3CCCCC3)CCCCC2)cc1 | inactive: -0.573%
CN(C)c1ccc(C(=O)NCC2(N(C)C)CCCCC2)cc1 | inactive: -1.07%
CN(C)C1CCCC1OC(=O)C(O)(c1ccccc1)c1ccccc1 (stereo not given) | inactive: -0.539%
Cc1ccccc1C(=O)NCC1(N2CCCCC2)CCCCC1 | inactive: 0.178%
O=C(NCC1(N2CCCCC2)CCCCC1)c1cc(F)c(F)cc1Cl | inactive: 1.43%
C=CCN1CCN(CCOC(=O)C(O)(c2ccccc2)c2ccccc2)CC1 | inactive: -3.3%
CCN1CCCC(OC(=O)C2(O)c3ccccc3C=Cc3ccccc32)C1 (stereo not given) | inactive: 19%
Cc1cc(C(=O)NCC2(N3CCCCC3)CCCCC2)ccc1[N+](=O)[O-] | inactive: -3.72%
COc1ccc(C(=O)NCC2(N(C)C)CCCCC2)cc1 | inactive: -1.55%
CN(C)C1(CNC(=O)c2ccc(Br)cc2)CCCCC1 | inactive: 0.421%
COc1cc(C(=O)NCC2(N(C)C)CCCCC2)c([N+](=O)[O-])cc1OC | inactive: -3.16%
COc1ccc(Cl)cc1C(=O)NCC1(N(C)C)CCCCC1 | inactive: 0.65%
COc1cccc(C(=O)NCC2(N3CCCCC3)CCCCC2)c1 | inactive: -1.79%
O=C(NCC1(N2CCCCC2)CCCCC1)c1cccc(Cl)c1 | inactive: 20.1%
O=C(OC1CN2CCC1CC2)C(CO)(c1ccccc1)c1ccccc1 (stereo not given) | inactive: 4.35%
COc1ccc(Br)c(C(=O)NCC2(N3CCCCC3)CCCCC2)c1 | inactive: 2.79%
C=C(C)C#CC(O)(C(=O)OC1CCN(C)CC1)c1ccccc1 (stereo not given) | inactive: 6.62%
CN(C)c1cccc(C(=O)NCC2(N(C)C)CCCCC2)c1 | inactive: 1.09%
O=C(OCCN1CCCC1)C(O)(c1ccccc1)c1ccccc1 | inactive: 1.03%
CC(C)Oc1ccc(C(=O)NCC2(N(C)C)CCCCC2)cc1 | inactive: -2.45%
